Reference: EP4837910A1, “ISOXAZOLINE COMPOUND AND PREPARATION METHOD THEREFOR, HERBICIDAL COMPOSITION, AND USE” (dated 2026)

Legend:
[1] = system: Monocotyledonous and dicotyledonous weed; assay: Post-emergence test on weeds (greenhouse, spray tower); details: Dosage 240 g a.i./ha, after 3 weeks of cultivation in a greenhouse, fresh weight control rate
[2] = system: Monocotyledonous and dicotyledonous weed; assay: Pre-emergence test on weeds (greenhouse, sprayed immediately after sowing); details: Dosage 240 g a.i./ha, after 4 weeks in greenhouse, fresh weight control rate
Triticum aestivum = assay: Pre-emergence test, crop damage (greenhouse, sprayed immediately after sowing); details: Dosage 240 g a.i./ha, after 4 weeks in greenhouse, fresh weight control rate
Zea mays = assay: as above; details: Dosage 240 g a.i./ha, after 4 weeks in greenhouse, fresh weight control rate

Compound | Avena fatua, activity level of plant damage (growth control rate) [1] | activity level of plant damage (growth control rate), Descurainia sophia [2] | activity level of plant damage (growth control rate), Triticum aestivum (Triticum aestivum) | activity level of plant damage (growth control rate), Zea mays (Zea mays) | Digitaria sanguinalis, activity level of plant damage (growth control rate) [1] | activity level of plant damage (growth control rate), Digitaria sanguinalis [2] | activity level of plant damage (growth control rate), Lolium multiflorum [2] | activity level of plant damage (growth control rate), Setaria viridis [2]
C=C[C@@]1(C(=O)N[C@H](C)C(=O)NOC)CC(c2cc(Cl)cc(Cl)c2)=NO1 | 9 | 8 (Level 8: growth control rate greater than or equal to 90% and less than 100%) | 0 | 0 |  |  |  | 
C=C(C)[C@@]1(C(=O)N[C@@H](C)C(=O)NOC)CC(c2cc(F)cc(OC)c2)=NO1 | 9 |  | 1 (Level 1: growth control rate less than 10%) | 0 | 5 (Level 5: growth control rate greater than or equal to 50% and less than 70%) | 9 | 5 (Level 5: growth control rate greater than or equal to 50% and less than 70%) | 5 (Level 5: growth control rate greater than or equal to 50% and less than 70%)
C=CC1(C(=O)N[C@H](C)C(=O)N(C)OC)CC(c2cc(Cl)cc(Cl)c2)=NO1 (some centres unmarked) | 5 (Level 5: growth control rate greater than or equal to 50% and less than 70%) |  | 1 (Level 1: growth control rate less than 10%) | 2 (Level 2: growth control rate greater than or equal to 10% and less than 20%) |  | 7 (Level 7: growth control rate greater than or equal to 80% and less than 90%) | 6 (Level 6: growth control rate greater than or equal to 70% and less than 80%) | 7 (Level 7: growth control rate greater than or equal to 80% and less than 90%)
C=C[C@]1(C(=O)N[C@H](C(=O)N(C)OC)C(C)(C)C)CC(c2cc(F)cc(F)c2)=NO1 |  |  | 0 | 0 |  |  | 5 (Level 5: growth control rate greater than or equal to 50% and less than 70%) | 
C=C[C@@]1(C(=O)N[C@@H](C)C(=O)N(C)OC)CC(c2ccc(F)c(F)c2)=NO1 |  | 5 (Level 5: growth control rate greater than or equal to 50% and less than 70%) | 1 (Level 1: growth control rate less than 10%) | 0 |  |  |  | 
CON(C)C(=O)[C@H](C)NC(=O)C1(C)CC(c2ccc(F)c(Cl)c2)=NO1 (some centres unmarked) |  |  | 0 | 0 |  | 5 (Level 5: growth control rate greater than or equal to 50% and less than 70%) |  | 
